Assay results reported in ChEMBL document CHEMBL3091319, “Chemical synthesis and biological validation of immobilized protein kinase inhibitory Leucettines” (Eur J Med Chem, 2013).

Protein sequences, listed by entry. Tags and fused reporters are not part of them. Lines headed by an entry give the natural chain unless they say otherwise; changes in a name come on top.
UniProt O35493: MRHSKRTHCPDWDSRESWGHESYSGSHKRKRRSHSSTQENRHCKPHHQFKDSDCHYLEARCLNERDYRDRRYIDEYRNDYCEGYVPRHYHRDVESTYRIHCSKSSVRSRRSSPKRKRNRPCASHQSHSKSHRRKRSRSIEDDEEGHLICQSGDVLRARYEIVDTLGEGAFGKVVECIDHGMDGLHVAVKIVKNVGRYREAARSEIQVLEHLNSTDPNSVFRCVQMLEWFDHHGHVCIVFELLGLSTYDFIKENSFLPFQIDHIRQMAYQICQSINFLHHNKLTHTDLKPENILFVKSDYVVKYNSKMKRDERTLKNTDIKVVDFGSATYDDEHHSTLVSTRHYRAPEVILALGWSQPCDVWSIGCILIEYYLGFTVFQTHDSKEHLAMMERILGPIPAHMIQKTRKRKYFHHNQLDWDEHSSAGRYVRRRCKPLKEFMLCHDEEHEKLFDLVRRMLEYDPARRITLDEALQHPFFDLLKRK

Columns and labels:
[1] = biological target: Dual specificity protein kinase CLK4 (Mus musculus, UniProt O35493); test: Inhibition of mouse recombinant CLK4 expressed in Escherichia coli using GRSRSRSRSRSR as substrate
Outline: (§1)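 Human DYRKs and mouse CLKs were expressed in E. coli as GST fusions and purified on glutathione-agarose. Each was assayed with RS peptide substrate and [γ-33P]ATP in buffer D at 30 °C for 30 min. Phosphorylation was read on P81 filters by scintillation. Activity is given as % of maximal after blank subtraction, and IC50 was derived from dose-response curves.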

[2] = biological target: T1, Dual specificity tyrosine-phosphorylation-regulated kinase 3 (Homo sapiens, UniProt O43781); test: Inhibition of human recombinant DYRK3 expressed in Escherichia coli using GRSRSRSRSRSR as substrate; outline: as §1
T1 sequence (O43781 whole entry): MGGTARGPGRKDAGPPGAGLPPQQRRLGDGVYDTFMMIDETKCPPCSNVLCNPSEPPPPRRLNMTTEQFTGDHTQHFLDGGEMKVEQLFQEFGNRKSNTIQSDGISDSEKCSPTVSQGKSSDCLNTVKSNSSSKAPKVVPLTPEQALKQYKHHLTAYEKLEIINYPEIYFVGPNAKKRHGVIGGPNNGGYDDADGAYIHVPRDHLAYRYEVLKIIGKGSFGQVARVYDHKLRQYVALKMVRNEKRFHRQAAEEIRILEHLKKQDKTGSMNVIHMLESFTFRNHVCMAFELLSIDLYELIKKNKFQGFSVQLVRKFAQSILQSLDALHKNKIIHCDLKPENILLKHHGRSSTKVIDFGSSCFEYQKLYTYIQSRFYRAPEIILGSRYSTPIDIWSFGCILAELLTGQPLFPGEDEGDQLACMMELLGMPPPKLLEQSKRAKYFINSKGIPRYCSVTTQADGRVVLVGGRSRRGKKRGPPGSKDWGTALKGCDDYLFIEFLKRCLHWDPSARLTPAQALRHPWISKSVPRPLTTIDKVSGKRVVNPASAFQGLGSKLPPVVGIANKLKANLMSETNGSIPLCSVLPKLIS

O=C1NC(Nc2ccccc2)=N/C1=C\c1ccc2c(c1)OCO2 gave an IC50 [1] of 0.031 µM and an IC50 [2] of 0.7 µM.
